Literature values as cited in patent US20260015582A1, “METHODS OF T CELL DIFFERENTIATION AND COMPOSITIONS THEREOF” (THE CHILDREN'S MEDICAL CENTER CORPORATION, priority 2022, published 2026).

Amino acid sequences for entries named in this document (tags omitted). A change or cut given only in a name is not applied to a line headed by its entry.
UniProt O43463: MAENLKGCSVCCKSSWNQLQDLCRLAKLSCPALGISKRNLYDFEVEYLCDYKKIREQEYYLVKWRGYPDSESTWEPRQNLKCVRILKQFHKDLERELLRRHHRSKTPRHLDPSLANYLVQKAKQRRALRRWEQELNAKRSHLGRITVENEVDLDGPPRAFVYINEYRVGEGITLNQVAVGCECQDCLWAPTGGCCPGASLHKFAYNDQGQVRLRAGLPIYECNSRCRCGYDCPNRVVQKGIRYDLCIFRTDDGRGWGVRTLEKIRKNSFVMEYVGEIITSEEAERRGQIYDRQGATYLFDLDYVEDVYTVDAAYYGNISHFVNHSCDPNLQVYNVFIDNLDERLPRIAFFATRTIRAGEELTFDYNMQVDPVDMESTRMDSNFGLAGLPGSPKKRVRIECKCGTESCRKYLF
UniProt P26358: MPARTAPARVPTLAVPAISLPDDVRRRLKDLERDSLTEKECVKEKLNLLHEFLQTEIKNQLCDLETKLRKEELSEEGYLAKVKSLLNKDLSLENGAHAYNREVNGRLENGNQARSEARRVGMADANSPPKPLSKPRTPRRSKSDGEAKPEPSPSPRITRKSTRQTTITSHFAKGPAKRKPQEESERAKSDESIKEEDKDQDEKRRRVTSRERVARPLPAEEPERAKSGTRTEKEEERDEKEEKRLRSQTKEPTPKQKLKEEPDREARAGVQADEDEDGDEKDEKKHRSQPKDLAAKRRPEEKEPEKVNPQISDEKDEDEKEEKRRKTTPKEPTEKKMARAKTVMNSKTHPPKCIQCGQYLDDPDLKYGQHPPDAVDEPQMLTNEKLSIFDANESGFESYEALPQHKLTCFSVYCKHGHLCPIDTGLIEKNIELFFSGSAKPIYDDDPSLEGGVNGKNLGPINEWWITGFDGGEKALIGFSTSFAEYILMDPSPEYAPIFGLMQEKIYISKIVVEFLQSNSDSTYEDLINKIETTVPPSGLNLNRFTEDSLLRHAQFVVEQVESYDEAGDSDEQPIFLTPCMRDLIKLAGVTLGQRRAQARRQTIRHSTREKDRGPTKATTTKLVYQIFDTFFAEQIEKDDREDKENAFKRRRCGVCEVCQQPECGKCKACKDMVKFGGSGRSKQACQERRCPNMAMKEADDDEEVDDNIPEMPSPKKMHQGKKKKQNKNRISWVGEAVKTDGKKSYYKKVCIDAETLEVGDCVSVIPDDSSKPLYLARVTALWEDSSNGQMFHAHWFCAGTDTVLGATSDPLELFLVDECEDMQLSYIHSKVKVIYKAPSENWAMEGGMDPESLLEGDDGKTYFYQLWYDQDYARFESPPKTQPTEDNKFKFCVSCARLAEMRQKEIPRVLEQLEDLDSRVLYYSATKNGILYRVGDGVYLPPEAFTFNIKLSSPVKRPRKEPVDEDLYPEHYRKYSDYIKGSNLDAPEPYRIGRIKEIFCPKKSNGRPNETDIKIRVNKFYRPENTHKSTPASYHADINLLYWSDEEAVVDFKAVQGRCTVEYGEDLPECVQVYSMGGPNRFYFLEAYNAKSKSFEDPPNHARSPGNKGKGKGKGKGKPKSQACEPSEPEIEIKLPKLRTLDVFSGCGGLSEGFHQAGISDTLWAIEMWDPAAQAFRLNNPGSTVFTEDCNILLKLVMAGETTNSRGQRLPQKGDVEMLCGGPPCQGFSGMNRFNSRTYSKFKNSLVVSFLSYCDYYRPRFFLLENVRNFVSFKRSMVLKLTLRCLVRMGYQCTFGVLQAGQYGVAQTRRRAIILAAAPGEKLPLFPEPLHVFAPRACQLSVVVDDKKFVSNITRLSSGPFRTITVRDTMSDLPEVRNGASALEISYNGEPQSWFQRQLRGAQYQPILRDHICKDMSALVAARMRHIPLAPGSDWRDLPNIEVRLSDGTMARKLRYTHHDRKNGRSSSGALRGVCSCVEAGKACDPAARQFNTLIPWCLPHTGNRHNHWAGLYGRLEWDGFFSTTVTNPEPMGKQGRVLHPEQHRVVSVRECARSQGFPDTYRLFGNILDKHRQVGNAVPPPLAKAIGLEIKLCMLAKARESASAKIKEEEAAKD

Columns and labels:
SU39H1 = SU39H1 (Homo sapiens, UniProt O43463); conditions: cited from earlier work
NDMT1 = NDMT1 (Homo sapiens, UniProt P26358); conditions: cited from earlier work

SMILES: O=C(O)c1ccc2c(c1)nc(NC(=O)c1ccccc1)n2CCCc1ccccc1 [BRD9539]
- concentration up to which selective for G9a and PRC2 over SU39H1 (SU39H1): ≤ 40 µM
- concentration up to which selective for G9a and PRC2 over NDMT1 (NDMT1): ≤ 40 µM
